In patent US5221606A, “Reagent and kit for enzyme assay comprising a substrate consonant with given enzyme to be assayed” (King's College London, priority 1987, dated 1993):

Experiment: solubility in water or aqueous buffer

For “2-[2-(4-Benzoyloxy-3-methoxyphenyl)-vinyl-1-methylquinolinium iodide [21e]”, the solubility in water was 250 µM.
